What is called IC50 is the concentration that inhibits the measured activity by half.

Chains of the proteins cited; added tags and fusions are not shown. Lines headed by an entry give the natural chain unless they say otherwise; changes in a name come on top.
UniProt P33032: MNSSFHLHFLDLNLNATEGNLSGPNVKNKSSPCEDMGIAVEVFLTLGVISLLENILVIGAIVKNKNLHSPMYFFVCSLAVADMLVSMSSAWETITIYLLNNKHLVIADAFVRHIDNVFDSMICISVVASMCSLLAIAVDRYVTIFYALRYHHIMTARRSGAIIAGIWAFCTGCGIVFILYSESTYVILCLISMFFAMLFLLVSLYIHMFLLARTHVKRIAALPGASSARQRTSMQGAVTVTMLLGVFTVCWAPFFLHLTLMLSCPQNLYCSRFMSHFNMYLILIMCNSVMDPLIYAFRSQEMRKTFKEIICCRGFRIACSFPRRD

Four molecules from patent EP2257297B1, “COMPOUNDS FOR USE IN THE TREATMENT OF ACNE, SEBORRHOEA AND SEBHORROEIC DERMATITIS, OR FOR REDUCING SEBUM SECRETION” (priority 2008, dated 2009) can be followed below.

Where only a bound is given, the exact number is not on record here.

The target of one test is human MC3R. The test can be described thus: Human MC3R radioligand binding assay ([125I] NDP-MSH). To be noted: Table 6, hMCR binding selectivity. As for the experimental part: (§1) Radioligand binding assays were carried out using commercial or in-house prepared hMC1 R, hMC3R and hMC4R membranes and [^125I]
(§2) In-house plasma membranes were prepared from transfected mammalian cells (prepared as in Example 109, using plasmid DNA containing the human MC1 R, MC3R or MC4R gene or other gene of interest in a plasmid vector with a mammalian origin of replication): • Adherent cells were washed with warm Hanks buffered saline solution (HBSS). 1 mL of cold HBSS was added to each flask and the cells were scraped off with a rubber policeman. The scraped cells were added to a 50 mL tube on ice. The plates were then rinsed twice with 5 mL cold HBSS and this was also added to the tube. The cells were centrifuged at 1000 x g for 5 mins in a bench top centrifuge and the supernatant was decanted. The remaining cell pellet was resuspended in 0.25 M sucrose. The cell suspension was centrifuged again as previously and the pellet resuspended in 5 mL of 0.25 M sucrose containing protease inhibitors. The cells were homogenised by a 10 second pulse with an Ika disperser followed by 30 seconds on ice. The homogenisation and ice incubation was repeated three times. The mixture was then centrifuged at 1260 x g for 5 mins. […]

A further test has as its target T1, human MC5R (Homo sapiens, UniProt P33032).
T1 construct: purchased Perkin Elmer RBXMC5M400UA
Kind of test: Human MC5R radioligand binding assay ([125I] NDP-MSH displacement, hMC5R membranes). As to conditions: hMC5R assay as in Example 102; compounds tested as trifluoroacetate or hydrochloride salts, or as free base. As for the experimental part:
After incubation for 10 mins the phosphate buffer containing the iodine was added to NDP-MSH (10 ul at 1 mg/mL) in a separate eppendorf tube. This was incubated for a further 10 mins.
Resuspended membranes were kept on ice until they were added to the wells of the plate.
Assays were performed in 96 well polypropylene plates. […] This was incubated for 1 hr at 37 °C. Non-specific binding was determined with […] NDP-MSH. Plates were filtered using a Tomtec cell harvester with GF/A filters (Wallac) (presoaked in 0.6% polyethylenimine) and washed three times with 1.0 mL ice-cold wash buffer (the above incubation buffer without 1,10-phenanthroline and Complete™ protease inhibitor tablet). The filters were dried in a 37 °C oven, placed in a sample bag and 5 mL Betaplatescint (Wallac) was added. Prepared filters were counted in cassettes in a Microbeta Trilux (Wallac) for 1 min. […] Data analysis was performed using GraphPad Prism 4, employing competition binding with a single site model and a fixed Hill coefficient. The following equation was used: Y = Bottom + (Top-Bottom)/1/10^(X-logEC50), where X = log(concentration) and Y = binding to fit the data.

The target in a further test is human MC1R. Kind of test: Human MC1R radioligand binding assay ([125I] NDP-MSH). To be noted: Table 6, hMCR binding selectivity. On the procedure:
as §1, §2

In another test the target is human MC4R. The test can be described thus: Human MC4R radioligand binding assay ([125I] NDP-MSH). As to conditions: Table 6, hMCR binding selectivity. As for the experimental part: as §1, §2

Regarding `N=C(N)NCCC[C@@H]1N[C@H](CNC(=O)c2ccc3ccccc3c2)CCN(CC(c2ccccc2)c2ccccc2)C1=O` [Compound 105, N-(((3S,5S)-1-(2,2-diphenylethyl)-3-(3-guanidinopropyl)-2-oxo-1,4-diazepan-5-yl)methyl)-2-naphthamide], the 50% inhibitory concentration (IC50) on human MC3R came to 1.75 µM. In the case of `N=C(N)NCCC[C@@H]1N[C@@H](CNC(=O)c2ccc3ccccc3c2)CCN(CC(c2ccccc2)c2ccccc2)C1=O` [Compound 104, N-(((3S,5R)-1-(2,2-diphenylethyl)-3-(3-guanidinopropyl)-2-oxo-1,4-diazepan-5-yl)methyl)-2-naphthamide], the IC50 at human MC5R is less than 10 µM.

On to `N=C(N)NCCC[C@H]1N[C@H](CNC(=O)c2ccc3ccccc3c2)CCN(CC(c2ccccc2)c2ccccc2)C1=O` [Compound 102, N-(((3R,5S)-1-(2,2-diphenylethyl)-3-(3-guanidinopropyl)-2-oxo-1,4-diazepan-5-yl)methyl)-2-naphthamide], for which, at human MC5R, the IC50 was less than 10 µM.

With `O=C(NC[C@@H]1CCN(CC(c2ccccc2)c2ccccc2)C(=O)[C@H](CCCN2CCCCC2)N1)c1ccc2ccccc2c1` [Compound 64, N-(((3S,5S)-1-(2,2-diphenylethyl)-2-oxo-3-(3-(piperidin-1-yl)propyl)-1,4-diazepan-5-yl)methyl)-2-naphthamide], the IC50 on human MC1R worked out at 9.22 µM; at human MC3R it was 2.24 µM; on human MC4R, 3.49 µM.
